These results are taken from US7435837B2, “Dihydrobenzofuranyl alkanamine derivatives and methods for using same” (Wyeth, priority 2003, dated 2008).

Sequences of proteins named here, by UniProt entry; tags and fusion partners are left off. Residues count along the entry.
UniProt P28335, 33-458: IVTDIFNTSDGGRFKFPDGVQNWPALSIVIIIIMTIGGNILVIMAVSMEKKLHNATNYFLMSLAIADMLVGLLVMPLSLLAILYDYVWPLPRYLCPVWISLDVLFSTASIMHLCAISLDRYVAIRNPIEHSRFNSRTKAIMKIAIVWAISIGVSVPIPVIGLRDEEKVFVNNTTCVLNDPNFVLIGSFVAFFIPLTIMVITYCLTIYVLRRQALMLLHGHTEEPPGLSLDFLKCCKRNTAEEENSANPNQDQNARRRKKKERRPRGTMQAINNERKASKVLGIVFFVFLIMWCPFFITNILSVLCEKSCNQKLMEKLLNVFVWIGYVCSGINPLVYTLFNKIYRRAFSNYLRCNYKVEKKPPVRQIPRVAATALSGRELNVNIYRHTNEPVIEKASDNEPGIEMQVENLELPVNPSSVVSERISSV

Assay [1] has as its target human 5-HT2C receptor (Homo sapiens, UniProt P28335). Conditions: reference compounds; calcium mobilization. For orientation: Calcium flux is commonly read through the fluorescence of an indicator in the cells.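 Note: Fluo-3-AM fluorescence read on FLIPR every 1 s, agonist added after 10 baseline reads, response taken as peak minus lowest raw fluorescence count.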
For assay [2], the target named is T1, human 5-hydroxytryptamine-2C (h5-HT2C) receptor (Homo sapiens, UniProt P28335).
T1 construct: expressed in transfected cells; host or cells: CHO (Chinese Hamster Ovary) cells; membranes
Description: [125I]DOI binding to membranes of CHO cells expressing the human 5-HT2C receptor. Conditions: [125I]DOI radioligand, CHO cell membranes, room temperature 60 min; read-out: 5-HT2C Affinity Ki.

Consider “1-(2,5-dimethoxy-4-iodophenyl)isopropylamine [DOI, reference compound]”, for which, in assay [1], the EC50 (commonly the concentration at which the effect is half-maximal) was determined as 0.5 nM.
`Cc1cccc(-c2cccc3c2OC(CN)C3)c1C` (racemic) [Example 154, (±)-1-[7-(2,3-dimethylphenyl)-2,3-dihydro-1-benzofuran-2-yl]methanamine]: the Ki (usually the dissociation constant of the complex between target and ligand, obtained from inhibition or displacement) in assay [2] came out at 6.2 nM.
